Wnt bcat act: activators of Wnt/beta-catenin signaling. Wnt/beta-catenin reporter cell assay, activator, plate reader. 300,000 tested, 1.2% active. AID 743398. activation, % at 9.35 µM; in the data active = activation above about 30%, passing the limit was not always enough;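 also: 0% = neutral control wells and 100% = positive control wells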
PglD DTNB: PglD (C. jejuni) enzyme inhibition; purified PglD enzyme, DTNB colorimetric CoA detection; inhibition, % at 12.5 µM; 360,000 tested, 0.098% active; in the data active = inhibition above about 16%, passing the limit was not always enough
Yeast UUG start-1: alters start codon recognition fidelity in yeast; AID 602363; activity score, % at 18.7 µM; 350,000 tested, 0.13% active; S. cerevisiae UUG-firefly luciferase reporter, luminescence/redox ratio;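 active means replicate mean at a twofold rise or more, about +100% in these data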;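 further: firefly luciferase made from a UUG start codon reports start codon fidelity; reporter light over untreated wells divided by growth signal over untreated wells; some hits fall short of that in this replicate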
esBAF inh: SWI/SNF esBAF complex inhibition. mouse ES cells, Bmi1-luciferase knock-in reporter, 24 h; 100% = twice the neutral-well signal. 350,000 tested, 2% active. reporter increase, % at 12.5 µM; in the data active = activation above about 40%;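 also: 0% = median of the plate's neutral control wells and 100% = double that signal; a rise in the Bmi1 reporter signal indicates esBAF inhibition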
miR122 inh: inhibitors of miR-122 in Huh7 cells; Huh7 miR-122 Renilla luciferase sensor, 48 h; neutral wells = 0, positive control = 100; activation (reporter increase), % at 12.5 µM; 340,000 tested, 0.3% active;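 active = mean replicate activation score at least 90 and every replicate individually at or above 90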;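 also: higher luciferase means less miR-122 activity so hits act as miR-122 inhibitors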
MITF TRPM1 HTS: increases MITF-driven TRPM1 promoter luciferase signal | SK-MEL-5 TRPM1-promoter luciferase, 24 h; % of positive control, neutral wells = 0 | activation, % at 12.5 µM | 300,000 tested, 0.75% active;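 active = mean activation of at least 80% with every replicate also reaching 80%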;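 also: 0% = neutral control wells and 100% = parthenolide positive control wells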
Yeast UUG start-2: modulators of start codon recognition fidelity in yeast; AID 652061; shares compounds with Yeast UUG start-1; activation, % at 38 µM; 540 tested, under 10 active; S. cerevisiae UUG-start firefly luciferase, luminescence, 4 h; 100% means double the DMSO signal;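 active = signal increase whose fitted curve reaches an absolute level of 40 at a concentration under 10 µM; inactive = activity opposite to the expected increase, or the rest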
* hit, by the source's call; i = inactive; / = not tested or not shown; [ ] = remark or other dose. Only some compounds are listed: those with a hit (about 2.8% of all), similar ones and a draw of the others.

Keys – A = Wnt bcat act; B = PglD DTNB; C = Yeast UUG start-1; D = esBAF inh; E = miR122 inh; F = MITF TRPM1 HTS; G = Yeast UUG start-2
CCCCCCn1c(SCCN2CCOCC2)nc2c1c(=O)[nH]c(=O)n2C
  A: -6.3; B: 3.2; C: -14.9; D: /; E: 3.3; F: 5.1; G: /
CCCCCn1c(SCCN2CCOCC2)nc2c1c(=O)[nH]c(=O)n2C
  A: /; B: -5.8; C: 360.6*; D: 2.2; E: -5.3; F: -20.0; G: -8.5
O=C(C[C@H]1CC[C@@H]2[C@H](COC[C@@H](O)CN2C(=O)c2cccnc2)O1)NCc1ccc(-c2ccccc2)cc1
  A: /; B: 3.7; C: -12.0; D: -3.3; E: -1.8[16.7 µM]; F: /; G: /
C[C@@H]1CN([C@@H](C)CO)S(=O)(=O)c2ccc(C#CC3CC3)cc2O[C@@H]1CN(C)Cc1cccc(F)c1
  A: /; B: -0.7; C: 129.7*; D: -0.5; E: /; F: /; G: i
C[C@H]1CN([C@@H](C)CO)S(=O)(=O)c2ccc(C#Cc3cccc(F)c3)cc2O[C@@H]1CN(C)C
  A: /; B: 0.5; C: 107.2*; D: 4.4; E: 15.1[16.7 µM]; F: /; G: i
C[C@H]1CN([C@@H](C)CO)S(=O)(=O)c2ccc(C#CC3CC3)cc2O[C@@H]1CN(C)Cc1cccc(F)c1
  A: /; B: -9.2; C: -8.5; D: -7.0; E: /; F: /; G: /
COc1ccc(CCNS(=O)(=O)c2cccc(C)c2)cc1OC
  A: /; B: -7.7; C: -7.1; D: -0.3; E: -8.5; F: 2.6; G: 8.5
COc1ccc(CCNS(=O)(=O)c2ccc3c(c2)OCCO3)cc1OC
  A: 2.5; B: /; C: /; D: /; E: /; F: /; G: -3.1
COc1ccc(CCNS(=O)(=O)c2cccc(F)c2)cc1OC
  A: /; B: -1.4; C: 0.1; D: 4.9; E: 14.7; F: -6.8; G: 1.0
COc1ccc(CCNS(=O)(=O)c2cccc(S(=O)(=O)N3CCCC3)c2)cc1OC
  A: /; B: 11.3; C: 13.8; D: 1.0; E: -5.2; F: -8.7; G: /
COc1ccc(S(=O)(=O)NCCc2ccccc2)cc1
  A: /; B: -0.2; C: 10.2; D: 6.5; E: 63.3; F: -2.5; G: -0.2
COc1ccc(CCNS(=O)(=O)c2cnc(Cl)c(Br)c2)cc1OC
  A: -1.5; B: -9.6; C: -10.8; D: /; E: -1.7; F: -1.1; G: /
COc1ccc(CCNS(=O)(=O)c2ccc(Br)cc2)cc1
  A: -1.3; B: 5.9; C: -10.7; D: 7.0; E: /; F: -0.2; G: /
COc1ccc(CCNS(=O)(=O)c2ccc3c(c2)CCCC3)cc1OC
  A: 0.2; B: -2.6; C: -4.6; D: 4.2; E: 7.8; F: 3.4; G: /
COc1ccc(S(=O)(=O)NCCc2ccc(OC)c(OC)c2)cc1Cl
  A: /; B: /; C: /; D: /; E: /; F: /; G: i

Later entries.
Keys – A = Wnt bcat act; B = PglD DTNB; C = Yeast UUG start-1; D = esBAF inh; E = miR122 inh; F = MITF TRPM1 HTS; G = Yeast UUG start-2
CCN(CCCNc1cc2c(c(N)c1S(=O)(=O)O)C(=O)c1ccccc1C2=O)c1ccccc1
  A: -2.1; B: -0.9; C: 134.7*; D: /; E: /; F: /; G: -20.5
COCCn1c(SCC(=O)c2cc(C)n(C)c2C)nc2ccccc2c1=O
  A: 12.2; B: /; C: /; D: /; E: /; F: 27.9; G: -1.8
Cc1ccc(CSc2nc3ccccc3c(=O)n2Cc2ccco2)cc1
  A: -7.8; B: -2.1; C: -20.7; D: 3.6; E: -5.3; F: 13.9; G: /
Cc1cc(-n2c(C)cc(C(=O)CSc3nc4ccccc4c(=O)n3Cc3ccco3)c2C)no1
  A: -3.9; B: -13.5; C: 684.7*; D: 13.4; E: 1.1; F: /; G: 1.3
O=C(CSc1nc2ccccc2c(=O)n1Cc1ccco1)c1ccccc1
  A: /; B: 0.4; C: -17.1; D: 5.4; E: 9.7; F: 32.8; G: 1.7
CCOC(=O)CSc1nc2ccccc2c(=O)n1Cc1ccco1
  A: -3.4; B: -1.3; C: 4.3; D: 1.4; E: -1.8; F: -3.3; G: /
COCCn1c(SCC(=O)NC(=O)Cc2ccccc2)nc2ccccc2c1=O
  A: -1.5; B: -4.0; C: -14.4; D: -3.7; E: 0.6; F: 1.2; G: /
CCNC(=O)Nc1ccc2c(c1)C(=O)N(C)[C@H]1CC[C@H](CC(=O)NCC3CCCCC3)O[C@H]1CO2
  A: /; B: -2.5; C: 3.9; D: -1.0; E: 1.1[16.7 µM]; F: /; G: /
O=[N+]([O-])c1c(NCc2ccco2)ccc2nonc12
  A: -0.1; B: -3.0; C: 134.0*; D: /; E: 3.1; F: /; G: 3.3
Fc1ccc(NC(=S)NCc2cccs2)cc1
  A: -3.6; B: 1.3; C: 253.3*; D: 9.8; E: 24.1; F: 12.0; G: -6.2
CCN(CC)CCNC(=O)Cn1nc(Cc2cccnc2)c2ccccc2c1=O
  A: 0.2; B: -0.5; C: -8.5; D: 3.3; E: /; F: /; G: /
CCCCn1nc(CC(=O)NCCN(CC)CC)c2ccccc2c1=O
  A: -3.8; B: /; C: /; D: -7.2; E: /; F: /; G: -6.4
Cn1nc(C(=O)NCc2ccccc2)c2ccccc2c1=O
  A: 0.0; B: -4.5; C: -12.3; D: 1.5; E: 1.0; F: -13.2; G: /
CCN(CC)CCNC(=O)C(C)c1nn(C)c(=O)c2ccccc12 (centres undefined)
  A: /; B: 1.7; C: 5.2; D: 0.2; E: -6.5; F: -3.4; G: -4.9
COc1ccc(S(=O)(=O)N(C)C[C@@H]2OCCCC[C@@H](C)Oc3ccc(NS(=O)(=O)c4cccs4)cc3C(=O)N([C@H](C)CO)C[C@H]2C)cc1
  A: /; B: -0.4; C: -13.9; D: 0.3; E: -11.1[16.7 µM]; F: /; G: /

Two compounds from above, reduced to miR122 inh, Yeast UUG start-2 and MITF TRPM1 HTS:
smiles	miR122 inh	Yeast UUG start-2	MITF TRPM1 HTS
Cn1nc(C(=O)NCc2ccccc2)c2ccccc2c1=O	1.0	/	-13.2
CCN(CC)CCNC(=O)C(C)c1nn(C)c(=O)c2ccccc12 (centres undefined)	-6.5	-4.9	-3.4

Screening data (PubChem)
